Measured values reported in PubChem BioAssay AID686949 (The Scripps Research Institute Molecular Screening Center, 2013).
The list shows a part of the results, in another mix than the full data. Active and inactive are the calls of the source.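 How the source made its calls: active means activation, as change over the incubation, above the mean of all tested compounds plus 3 SD (cut at about 13% in these data); inactive means the rest.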

Amino acid sequences for entries named in this document (tags omitted).
UniProt P49862, whole entry: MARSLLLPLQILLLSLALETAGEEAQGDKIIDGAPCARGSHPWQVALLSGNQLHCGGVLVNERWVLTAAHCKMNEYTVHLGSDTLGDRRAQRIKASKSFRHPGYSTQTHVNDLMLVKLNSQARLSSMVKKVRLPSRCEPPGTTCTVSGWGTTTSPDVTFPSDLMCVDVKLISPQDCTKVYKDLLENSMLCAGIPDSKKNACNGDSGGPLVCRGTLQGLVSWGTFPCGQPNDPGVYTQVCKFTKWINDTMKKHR

These compounds were tested against Kallikrein-7 (Homo sapiens) (UniProt P49862) (assay: proKLK7 zymogen activators, confirmation, biochemical, fluorescence intensity, triplicate (AID 686949)). Conditions: purified proKLK7, EDANS-DABCYL substrate fluorescence; at 7 µM; hits give high values; scaled: vehicle 0, mature enzyme 100.

SMILES	activation
Nc1ccc2c(ccc3cccnc32)n1.O=[N+]([O-])c1cc([N+](=O)[O-])c(O)c([N+](=O)[O-])c1	inactive: 8.76%
